Only a part is listed here, and it is no random draw.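 Note: values are percent growth. 100 is the growth of untreated cells, values between 100 and 0 indicate rising inhibition; between -100 and 0 indicates cell death.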 Activity calls are given as the source filed them. How the source made its calls: active means growth percent below 10; inactive means the rest.
How the values were obtained:
Test in all cases: NCI-60 one-dose screen, 48 h (100 = growth as untreated, 0 = no growth, -100 = all killed)
Details in all cases: 10 µM
NCI-H226 lung = test system: NCI-H226 lung
NCI-H322M lung = test system: NCI-H322M lung
HOP-62 NSCLC = test system: HOP-62 NSCLC
NCI-H460 lung = test system: NCI-H460 lung
HOP-92 NSCLC = test system: HOP-92 NSCLC
NCI-H522 lung = test system: NCI-H522 lung
A549/ATCC NSCLC = test system: A549/ATCC NSCLC
786-0 renal = test system: 786-0 renal
COLO 205 colon = test system: COLO 205 colon
DU-145 prostate = test system: DU-145 prostate
K-562 leukemia = test system: K-562 leukemia
MALME-3M melanoma = test system: MALME-3M melanoma
MDA-MB-231 breast = test system: MDA-MB-231 breast
RXF 393 renal = test system: RXF 393 renal
SF-268 CNS = test system: SF-268 CNS
SF-295 CNS = test system: SF-295 CNS
SF-539 CNS = test system: SF-539 CNS
UACC-257 melanoma = test system: UACC-257 melanoma
M14 melanoma = test system: M14 melanoma
HCT-15 colon = test system: HCT-15 colon
HT29 colon = test system: HT29 colon
SNB-75 CNS = test system: SNB-75 CNS
SNB-19 CNS = test system: SNB-19 CNS
U251 CNS = test system: U251 CNS
PC-3 prostate = test system: PC-3 prostate
UACC-62 melanoma = test system: UACC-62 melanoma
SK-MEL-28 melanoma = test system: SK-MEL-28 melanoma
SK-MEL-2 melanoma = test system: SK-MEL-2 melanoma
EKVX NSCLC = test system: EKVX NSCLC
SN12C renal = test system: SN12C renal
UO-31 renal = test system: UO-31 renal
TK-10 renal = test system: TK-10 renal
ACHN renal = test system: ACHN renal
CAKI-1 renal = test system: CAKI-1 renal
A498 renal = test system: A498 renal
HL-60(TB) leukemia = test system: HL-60(TB) leukemia
CCRF-CEM leukemia = test system: CCRF-CEM leukemia
MOLT-4 leukemia = test system: MOLT-4 leukemia
SR leukemia = test system: SR leukemia
RPMI-8226 leukemia = test system: RPMI-8226 leukemia
OVCAR-8 ovarian = test system: OVCAR-8 ovarian
OVCAR-5 ovarian = test system: OVCAR-5 ovarian
OVCAR-4 ovarian = test system: OVCAR-4 ovarian
IGROV1 ovarian = test system: IGROV1 ovarian
OVCAR-3 ovarian = test system: OVCAR-3 ovarian
HS 578T breast = test system: HS 578T breast
T-47D breast = test system: T-47D breast
BT-549 breast = test system: BT-549 breast
MDA-MB-435 melanoma = test system: MDA-MB-435 melanoma
SW-620 colon = test system: SW-620 colon
MCF7 breast = test system: MCF7 breast
HCT-116 colon = test system: HCT-116 colon
KM12 colon = test system: KM12 colon

Measured: growth

O=C(CNc1ccc([N+](=O)[O-])c([N+](=O)[O-])c1)n1cnc2ccc([N+](=O)[O-])cc21
inactive: NCI-H226 lung 109% | NCI-H322M lung 96.5% | HOP-62 NSCLC 103% | NCI-H460 lung 102% | HOP-92 NSCLC 123% | NCI-H522 lung 88.5% | A549/ATCC NSCLC 97.4% | 786-0 renal 101% | COLO 205 colon 114% | DU-145 prostate 107% | K-562 leukemia 114% | MALME-3M melanoma 102% | MDA-MB-231 breast 101% | RXF 393 renal 108% | SF-268 CNS 99.7% | SF-295 CNS 105% | SF-539 CNS 94.6% | UACC-257 melanoma 102% | M14 melanoma 102% | HCT-15 colon 100% | HT29 colon 98.8% | SNB-75 CNS 92.5% | SNB-19 CNS 96.3% | U251 CNS 99.3% | PC-3 prostate 104% | UACC-62 melanoma 98.1% | SK-MEL-28 melanoma 106% | SK-MEL-2 melanoma 98.9% | EKVX NSCLC 99.2% | SN12C renal 92.6% | UO-31 renal 93.3% | TK-10 renal 94.9% | ACHN renal 103% | CAKI-1 renal 97.2% | A498 renal 85.5% | HL-60(TB) leukemia 115% | CCRF-CEM leukemia 105% | MOLT-4 leukemia 102% | SR leukemia 107% | RPMI-8226 leukemia 115% | OVCAR-8 ovarian 103% | OVCAR-5 ovarian 106% | OVCAR-4 ovarian 111% | IGROV1 ovarian 107% | OVCAR-3 ovarian 108% | HS 578T breast 94.6% | T-47D breast 98.4% | BT-549 breast 104% | MDA-MB-435 melanoma 98.8% | SW-620 colon 103% | MCF7 breast 94% | HCT-116 colon 104% | KM12 colon 102%

From PubChem BioAssay (NCI)
